ERp5 inh: blocks human ERp5 reductase activity on insulin; AID 651711; inhibition, % at 9.99 µM; Q15084; actives 0.05% (n = 350,000); ERp5 insulin aggregation, absorbance 650 nm, 90 min;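 active = mean replicate inhibition above about 25%, with every replicate also reaching it, limit read from the data, passing the limit was not always enough; inconclusive = only one of those two criteria met; inactive = neither criterion met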
S100A4 inh HTS: blocks human S100A4 binding to myosin IIA peptide | S100A4/TAMRA-MyoIIA peptide fluorescence polarization | actives 0.14% (n = 360,000) | P26447 | inhibition, % at 10.7 µM;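 active = mean inhibition of at least 70% across replicates, with every replicate also reaching that level; inconclusive = mean inhibition reaches 70% but some replicates fall short; inactive = mean inhibition below 70%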
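System – human S100A4 monomer protein, biochemical binding assay · Buffer or medium – Calcium-containing HEPES buffer, pH 7.2 · Timing – 5 min between mix addition and reading · Also added – TAMRA-labelled myosin IIA heavy-chain peptide probe, 5 nM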
SIRT5 inh: blocks human SIRT5 desuccinylation of peptide | Q9NXA8 | Purified SirT5, succinyl-peptide AMC, trypsin-coupled fluorescence | inhibition, % at 15 µM | actives 1.1% (n = 330,000) | AID 652115; in the data active = inhibition above about 15%; inconclusive = no clear call, values can overlap the other calls
FGF22 binding-1: FGF22 (human) thermal shift binding | activity (Tm shift, normalised), % at 9.99 µM | AID 651658 | recombinant FGF22 thermal shift, SYPRO orange fluorescence; percent of sucrose octasulfate shift, DMSO zero | actives 1.5% (n = 340,000) | Q9HCT0;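 active = mean Tm shift, scaled 0 neutral to 100 positive control, at about 1.3% or above, every replicate too, limit read from the data; inconclusive = no clear call, values can overlap the other calls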
Yeast UUG start-1: modulators of yeast start codon fidelity, primary screen, whole organism, S. cerevisiae, single point, plate reader. S. cerevisiae UUG-firefly luciferase reporter, luminescence/redox ratio. activity score, % at 18.7 µM. 350,000 tested, 0.13% active;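 active = replicate mean at a twofold rise or more, about +100% in these data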;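 also: firefly luciferase made from a UUG start codon reports start codon fidelity; reporter light over untreated wells divided by growth signal over untreated wells; some hits fall short of that in this replicate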
PDI inh: blocks human protein disulfide isomerase activity. P07237. PDI insulin aggregation turbidity, A650, 90 min. inhibition, % at 10 µM. actives 0.052% (n = 350,000). AID 588391;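 active = mean inhibition across replicates of 30% or more, whatever share of single replicates reach that level; inconclusive = mean inhibition below 30% while every single replicate reaches 30%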
Yeast UUG start-2: modulators of start codon recognition fidelity in yeast; shares compounds with Yeast UUG start-1; S. cerevisiae UUG-start firefly luciferase, luminescence, 4 h; 100% means double the DMSO signal; activation, % at 38 µM; 540 tested, under 10 active;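 active = signal increase whose fitted curve reaches an absolute level of 40 at a concentration under 10 µM; inactive = activity opposite to the expected increase, or the rest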
FGF22 binding-2: binds human FGF22 shifting its melting temperature | recombinant FGF22 thermal shift, SYPRO orange fluorescence | actives 2% (n = 1,000) | thermal shift activity, °C (ΔTm) at 38 µM | shares compounds with FGF22 binding-1;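 active = fitted rise in melting shift crosses a set limit at or below the top valid dose tested; inconclusive = flat fit at mid-level activity, or a poor quality fit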
SYPRO no-protein: compound-only SYPRO artifact for FGF22 binders | actives 2% (n = 1,000) | shares compounds with FGF22 binding-1 | AID 743019 | compound-only SYPRO orange thermal shift counter-screen, no protein | AC50, µM (top dose mostly 38 µM);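 active = rising signal whose fitted curve reaches the 0.54 level within the top valid dose, showing a melting point, actives reach about 13 µM in these data; inactive = the rest, including activity in the opposite direction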; note: value is where the raw curve crosses a fixed level and not half-maximal
Numbers without * were called inactive; i = inactive; ? = inconclusive; / = no result; + = active, no number. Most compounds without a hit are left out; they make up all but 2.2% or so of the library.

SMILES | ERp5 inh | S100A4 inh HTS | SIRT5 inh | FGF22 binding-1 | Yeast UUG start-1 | PDI inh | others
CCN1C[C@]2(COC(=O)c3ccccc3N)CC[C@H](OC)C34[C@@H]5C[C@H]6[C@H](OC)[C@@H]5[C@](O)(C[C@@H]6OC)[C@@](O)([C@H]13)[C@@H](OC)[C@@H]42 | 2.2 | -3.0 | -11.9 | -0.2 | 5.9 | 44.8*
Cc1cc(C=O)c(C)n1C(C)C | ? | -2.2 | -0.7 | 43.1* | / | -5.1
CCCn1c(C)cc(C=O)c1C | 3.8 | -10.5 | -1.3 | 0.0 | / | -1.8
COC(=O)[C@H]1[C@H](CO)[C@H]2Cn3c(ccc(/C=C/c4ccccc4)c3=O)[C@@H]1N2C(=O)C1CC1 | -5.0 | -0.5 | -113.7 | 0.0 | / | /
COc1cccc(CC(=O)N(C)C2CCCN(Cc3ccccc3F)C2)c1 (configuration not stated) | 2.8 | -6.4 | 18.3* | -0.3 | 7.1 | 0.2
CN(C)C1C(=O)C(C(N)=O)=C(O)C2(O)C(=O)C3=C(O)c4c(O)cccc4C(C)(O)C3C(O)C12 (configuration not stated) | 6.2 | -1.3 | 40.4* | -0.3 | -47.8 | -4.7
O=C(O)[C@@H]1[C@@H](CO)[C@@H]2Cn3c(cccc3=O)[C@H]1N2C(=O)c1ccccc1 | -2.8 | 0.5 | 7.4 | 0.0 | / | /
CNc1ccc2nc3ccccc3[n+](C)c2c1 | 0.3 | + | 6.1 | -0.1 | -13.0 | 10.4
C[n+]1c2ccccc2nc2ccc(NCCO)cc21 | 4.5 | 192.4* | 0.8 | 0.0 | -13.6 | -6.0
N#Cc1cccc(-c2ccc([C@H]3[C@H]4CN(C(=O)Cc5ccncc5)CCCCN4[C@H]3CO)cc2)c1 | 0.6 | -17.5 | 1.4 | -0.2 | -10.5 | /
C/C=C/c1ccc(C2[C@@H]3CN(C(=O)c4cnccn4)C[C@H]2N3)cc1 (some centres not stated) | -1.6 | -11.5 | 3.2 | / | / | /
O=C1NC(=O)N(Cc2ccco2)C(=O)/C1=C/C=C/c1ccco1 | 7.6 | -2.7 | 15.3* | -0.1 | / | -2.3
Cc1cccc(S(=O)(=O)N2[C@@H]3Cn4c(ccc(-c5ccncc5)c4=O)[C@H]2[C@@H](C(=O)O)[C@@H]3CO)c1 | -9.8 | 9.4 | -59.0 | 0.0 | / | /
CC(=NCc1cccnc1)c1c(O)n(-c2ccccc2C)c(=O)[nH]c1=O | 0.7 | -2.1 | 27.2* | 0.2 | -21.7 | -5.1
O=C(Cc1ccccc1)N1CCCCN2[C@@H](CO)[C@H](c3ccc(C#CC4(O)CCCC4)cc3)[C@@H]2C1 | 4.8 | 7.4 | 2.1 | 0.5 | 5.7 | /
Cc1cccc(OCC(O)CN2CC2)c1 (configuration not stated) | 2.8 | 4.5 | -5.7 | 0.3 | 143.3* | 4.8 | Yeast UUG start-2=6.5
CC(=O)c1cccc(OCC(O)CN2CC=C(c3ccccc3)CC2)c1 (configuration not stated) | / | / | / | / | 10.1 | 1.1
COc1ccccc1CN1CCCC(C(=O)c2ccccc2OC)C1 (configuration not stated) | 3.5 | -3.5 | -28.5 | -0.1 | active | -0.9 | Yeast UUG start-2=11.1
COC(=O)[C@H]1[C@H](CO)[C@H]2Cn3c(ccc(-c4ccc(F)cc4)c3=O)[C@@H]1N2C(C)=O | -2.4 | -9.8 | -14.3 | 0.0 | / | /
CC=Cc1ccc2n(c1=O)C[C@@H]1[C@@H](CO)[C@H](C(=O)O)[C@H]2N1S(=O)(=O)c1ccccc1C (mixture of isomers) | 5.0 | 4.4 | -8.3 | 0.0 | / | /
O=C(N/N=C/c1c(O)n(-c2ccccc2)c(=S)[nH]c1=O)c1ccccc1 | -0.9 | -0.4 | 0.8 | 0.2 | 182.2* | -7.5 | Yeast UUG start-2=15.3
O=C(NCCN1CCC2(CC1)C(=O)NCN2c1ccccc1)c1ccc2ccccc2c1 | 2.4 | -4.7 | / | 1.9* | / | / | FGF22 binding-2=0.034;SYPRO no-protein=i

Retrieved one by one from the list above:
SMILES | ERp5 inh | S100A4 inh HTS | SIRT5 inh | FGF22 binding-1 | Yeast UUG start-1 | PDI inh | others
COc1cccc(CC(=O)N(C)C2CCCN(Cc3ccccc3F)C2)c1 (configuration not stated) | 2.8 | -6.4 | 18.3* | -0.3 | 7.1 | 0.2
Cc1cccc(OCC(O)CN2CC2)c1 (configuration not stated) | 2.8 | 4.5 | -5.7 | 0.3 | 143.3* | 4.8 | Yeast UUG start-2=6.5
COC(=O)[C@H]1[C@H](CO)[C@H]2Cn3c(ccc(/C=C/c4ccccc4)c3=O)[C@@H]1N2C(=O)C1CC1 | -5.0 | -0.5 | -113.7 | 0.0 | / | /

High-throughput results as filed in PubChem BioAssay.
